{
  "source": "PubChem BioAssay (EPA / NIEHS)",
  "note": "Values joined by “and” are separate entries in the source; they are usually repeats but may differ in a detail not shown here. Equal values may be shown once. Only a part is listed here, and it is no random draw. Active and inactive are the calls of the source. How the source made its calls: active means hit-call score of the fitted dose curve at least 0.9, where 1 is the maximum; inactive means score below 0.9.",
  "data": [
    {"assay": "ATG_PPRE_CIS: Attagene CIS-FACTORIAL HepG2 Assay for human Peroxisome Proliferator-activated Response Element (PPRE) (AID 2282958)", "settings": "HepG2 PPRE cis-element reporter, Attagene transcription factor profiling; actives raise or lower the signal", "values": [
      {"smiles": "C/C(=N\\NC(=O)Nc1cc(F)cc(F)c1)c1ncccc1C(=O)O", "outcome": "inactive"},
      {"smiles": "O=P(O)(Oc1ccccc1)Oc1ccccc1", "outcome": "inactive"},
      {"smiles": "CC(Cc1ccc(OCC(=O)O)cc1)NCC(O)c1csc(C(F)(F)F)n1", "note": "(stereo not given)", "outcome": "inactive"},
      {"smiles": "CC(C)OC(=O)Nc1ccccc1", "outcome": "inactive"},
      {"smiles": "O=C(O)C(F)(F)C(F)(F)C(F)(F)C(F)(F)C(F)(F)C(F)(F)C(F)(F)C(F)(F)C(F)(F)C(F)(F)F", "AC50": "active: 21.6 µM and active: 13.4 µM"},
      {"smiles": "CCC(C)(C)c1ccc(O)cc1", "outcome": "inactive"},
      {"smiles": "CCCCCCC1CCOC1=O", "note": "(stereo not given)", "outcome": "inactive"},
      {"smiles": "ClCc1ccccc1Cl", "outcome": "inactive"},
      {"smiles": "Cc1ccc(N=CN(C)C=Nc2ccc(C)cc2C)c(C)c1", "outcome": "inactive"},
      {"smiles": "CC(Oc1ccc(Cl)cc1Cl)C(=O)O", "note": "(stereo not given)", "AC50": "active: 25.8 µM"},
      {"smiles": "CCCCNC(=O)n1c(NC(=O)OC)nc2ccccc21", "outcome": "inactive"},
      {"smiles": "[F][Sn]([c]1ccccc1)([c]1ccccc1)[c]1ccccc1", "AC50": "active: 0.0218 µM"},
      {"smiles": "Oc1c(Cl)c(Cl)c(Cl)c(Cl)c1Cl", "AC50": "active: 14.4 µM and active: 2.95 µM and active: 3.5 µM"},
      {"smiles": "BrCCCCBr", "outcome": "inactive"},
      {"smiles": "O=P1(NCCCl)OCCCN1CCCl", "note": "(stereo not given)", "outcome": "inactive"}
    ]}
  ]
}
